Experiments:
MCF-7/VP-16 (MRP) cells = settings: compared with DOX
KB cells = experiment: MTT cytotoxicity assay, sensitive KB cells; settings: relative to doxorubicin

## 6′-fluoro-doxorubicin [WP 743]
MCF-7/VP-16 (MRP) cells
  cytotoxicity in MCF-7/VP-16 cells, in words: significant increase in cytotoxicity
KB cells
  fold more cytotoxic than doxorubicin against sensitive KB cells: 6.4 fold

Reference: patent US6355784B1, “Methods and compositions for the manufacture of halogenated anthracyclines with increased antitumor activity, other anthracyclines, halogenated sugars, and glycosyl donors” (priority 1998, dated 2002)
